Source: ChEMBL document CHEMBL3352342, “Nucleotide-binding oligomerization domain (NOD) inhibitors: a rational approach toward inhibition of NOD signaling pathway” (J Med Chem, 2014)

Organism: Homo sapiens
Experiment: Selectivity ratio of IC50 for NOD2 (unknown origin) to IC50 for NOD1 (unknown origin)

## Cc1ccc(S(=O)(=O)n2c(N)nc3ccccc32)cc1
  Ratio IC50: > 36
